Test [1] has as its target T1, SARS-CoV-2 PLpro (nsp3 1564–1878) (Severe acute respiratory syndrome coronavirus 2, UniProt P0DTD1). As to the kind of experiment: biochemical.
For test [2], the target named is T1, SARS-CoV-2 PLpro (nsp3 1564–1878). As to the kind of experiment: biochemical. This is another data set of the same source.
Where [3] appears, read: read-out: % of control remaining.

Counter-ions that a name gives are not always drawn. Like-named read-outs stand apart in the source and are kept apart here.

`CC(C)NCC(O)COc1cccc2ccccc12` (racemic): in test [1] (read-out: % of control remaining, Well no.=854, low concentration screen), the remaining activity at 1.25 µM stood at 98.8%.

As to `CC(C)NC[C@H](O)COc1cccc2ccccc12` [(S)-Propranolol hydrochloride], the remaining activity at 1.25 µM in test [1] (read-out: % of control remaining, Well no.=1447, low concentration screen) was 98.4%.

`CN(C)CCCN1c2ccccc2CCc2ccc(Cl)cc21` [Clomipramine (hydrochloride)]: the remaining activity at 3.75 µM in test [2] (read-out: % of control remaining, Well no.=6190, high concentration screen) came out at 104%.

With `CN(C)CCOC(c1ccccc1)c1ccccc1` [Diphenhydramine (hydrochloride)], the remaining activity at 1.25 µM in test [1] (read-out: % of control remaining, Well no.=7573, low concentration screen) was found to be 99.4%.

In the case of `CN(C)CCOC(c1ccccc1)c1ccccc1` [Diphenhydramine hydrochloride], the remaining activity at 1.25 µM in test [1] (read-out: % of control remaining, Well no.=639, low concentration screen) was found to be 102%. Besides, the remaining activity at 3.75 µM in test [2] (read-out: % of control remaining, Well no.=639, high concentration screen) was 102%.

Take `CN(C)CCOC(c1ccccc1)c1ccccc1` [Diphenhydramine.HCl]: the remaining activity at 3.75 µM in test [2] (read-out: % of control remaining, Well no.=1638, high concentration screen) came out at 107%.

Take `OCCN1CCN(CCCN2c3ccccc3Sc3ccc(C(F)(F)F)cc32)CC1` [Fluphenazine (dihydrochloride)]: the remaining activity at 1.25 µM in test [1] (read-out: % of control remaining, Well no.=7659, low concentration screen) is 94.9%.

`CN1CCN(CC(=O)N2c3ccccc3C(=O)Nc3cccnc32)CC1` [Pirenzepine (dihydrochloride)]: in test [1] (read-out: % of control remaining, Well no.=7324, low concentration screen), the remaining activity at 1.25 µM was determined as 92.6%. Moreover, the remaining activity at 3.75 µM in test [2] (read-out: % of control remaining, Well no.=7324, high concentration screen) worked out at 91.8%.

In the case of `CN1CCN(CC(=O)N2c3ccccc3C(=O)Nc3cccnc32)CC1` [Pirenzepine dihydrochloride], the remaining activity at 1.25 µM in test [1] (read-out: % of control remaining, Well no.=1157, low concentration screen) is 107%. The remaining activity at 3.75 µM in test [2] (read-out: % of control remaining, Well no.=1157, high concentration screen) is 105%.

For `CC(C)NCC(O)COc1cccc2ccccc12` (centres unmarked) [Propranolol (hydrochloride)], the remaining activity at 1.25 µM in test [1] (read-out: % of control remaining, Well no.=6618, low concentration screen) came out at 96.7%. Besides, the remaining activity at 3.75 µM in test [2] (read-out: % of control remaining, Well no.=6618, high concentration screen) is 96.4%.

In the case of `CC(C)NCC(O)COc1cccc2ccccc12` (centres unmarked) [Propranolol HCl], the remaining activity at 1.25 µM in test [1] (read-out: % of control remaining, Well no.=4734, low concentration screen) was found to be 112%. In test [2] (read-out: % of control remaining, Well no.=4734, high concentration screen), the remaining activity at 3.75 µM was 107%.

`CC(C)NCC(O)COc1cccc2ccccc12` (centres unmarked) [Propranolol]: the remaining activity at 1.25 µM in test [1] (read-out: % of control remaining, Well no.=2205, low concentration screen) came out at 92.2%. Also, the remaining activity at 3.75 µM in test [2] (read-out: % of control remaining, Well no.=2205, high concentration screen) amounted to 93.8%.

With `COc1cc(/C=C/C(=O)NCCn2c(C(F)(F)F)cc3ccccc32)cc(OC)c1OC` [TG6-10-1], in test [1] (setting [3]), the remaining activity at 1.25 µM is 92.3%. Moreover, the remaining activity at 3.75 µM in test [2] (setting [3]) came out at 85.9%.

The values are drawn from publication PMC8286840, “Identifying SARS-CoV-2 antiviral compounds by screening for small molecule inhibitors of Nsp3 papain-like protease” (Biochemical Journal, 2021).
